Measured values published in ChEMBL document CHEMBL3124778, “Structure-based design of new dihydrofolate reductase antibacterial agents: 7-(benzimidazol-1-yl)-2,4-diaminoquinazolines” (J Med Chem, 2014).

Test system: Staphylococcus aureus
Assay: Antibacterial activity against Staphylococcus aureus ATCC 13709 infected in iv dosed BALB/c mouse septicemia model assessed as protection from lethal infection after 24 hrs
Format: functional

**Q.** For Cc1cc2nc(-c3nccs3)n(-c3ccc4c(N)nc(N)nc4c3)c2cc1C, which Activity is on record?
**A.** Dose-dependent effect
